Experimental data published in patent publication US9840494B2, “Quinazoline derivative” (Tianjin Hemay Oncology Pharmaceutical Co., Ltd., priority 2013, dated 2017).

Molecular target: T1, EGFR (Homo sapiens, UniProt P00533)
T1 construct: purchased Invitrogen Company PV3872
Assay: Inhibitory effect on tyrosine kinase activity of EGFR
Assay type: biochemical
Conditions: EGFR 40 ng/ml, ATP 10 μM, 30 min
Experimental: EGFR: Invitrogen Company, Catalogue No. PV3872
pGT (poly(glutamic acid-tyrosine)): Sigma-Aldrich Company, Catalogue No. P0275
The assay method is briefly described as follows.
3.1.1 At 4° C., 96-well microtiter plate was coated with 0.2 mg/mL pGT (as the substrate of enzyme) dissolved in PBS (phosphate buffer) overnight. Unbound pGT was washed away with a washing solution (0.05% Tween −20 in PBS), and the plate was dried in the air at room temperature for 2 h. […]
3.1.3 A final concentration of 1% SDS (sodium dodecyl sulfate) was added to terminate the reaction. […] OD value, which is positively correlated with the phosphorylation degree of tyrosine residues of pGT, was measured at 450 nm
3.2 The concentrations of the kinase and substrate ATP were determined with reference to the literature “Optimization of a LanthaScreen Kinase assay for EGFR (ErbB1)”(https://tools.lifetechnologies.com/content/sfs/manuals/EGFR_LanthaScreen_actity_Europium.pdf), published by Invitrogen Corporation. […]
The mean value of inhibition rate and SD (standard deviation) were determined by duplicate wells. […]

“N-[4-(3-chloro-4-fluorophenylamino)-7-(2-methoxyethoxy)quinazolin-6-yl]-2-[1-(2-methoxyethyl)piperidin-4-ylidene]acetamide diphosphate [Compound 7]” was tested, and the IC50 was 500 pM.
